# Membrane permeability of cyclic peptides

Values of Kelly et al. 2021, doi:10.1021/jacs.0c06115, as listed in CycPeptMPDB.

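Lipid, pH, incubation time, direction and concentration are not recorded in the data file. Other peptides of the study may be missing here. Entries at the database's floor value (log10 P of -10) are not listed.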

PAMPA measures passive passage through an artificial lipid membrane.
P is given in units of 10^-6 cm/s (from log10 values with two decimals); larger means faster passage.

| SMILES | PAMPA (10^-6 cm/s) |
|---|---|
| CC(=O)N1CCC[C@H]1C(=O)N(C)[C@@H](CC(C)C)C(=O)N[C@@H]1C(=O)N[C@@H](CC(C)C)C(=O)N[C@H](CC(C)C)C(=O)N[C@H](CC(C)C)C(=O)N[C@H](C)C(=O)N[C@H](CC(C)C)C(=O)N2CCC[C@H]2C(=O)O[C@@H]1C | 0.13 |
| CC(=O)N1CCC[C@H]1C(=O)N(C)[C@@H](CC(C)C)C(=O)N[C@@H]1C(=O)N[C@H](CC(C)C)C(=O)N(C)[C@@H](CC(C)C)C(=O)N(C)[C@H](CC(C)C)C(=O)N[C@@H](C)C(=O)N[C@@H](CC(C)C)C(=O)N2CCC[C@@H]2C(=O)O[C@@H]1C | 6 |
| CC(=O)N1CCC[C@@H]1C(=O)N(C)[C@@H](CC(C)C)C(=O)N[C@@H]1C(=O)N[C@H](CC(C)C)C(=O)N[C@@H](CC(C)C)C(=O)N(C)[C@H](CC(C)C)C(=O)N[C@@H](C)C(=O)N[C@@H](CC(C)C)C(=O)N2CCC[C@@H]2C(=O)O[C@@H]1C | 4 |
| CC(=O)N1CCC[C@H]1C(=O)N(C)[C@H](CC(C)C)C(=O)N[C@@H]1C(=O)N[C@H](CC(C)C)C(=O)N(C)[C@@H](CC(C)C)C(=O)N(C)[C@H](CC(C)C)C(=O)N[C@@H](C)C(=O)N[C@@H](CC(C)C)C(=O)N2CCC[C@@H]2C(=O)O[C@@H]1C | 5.1 |
| CC(=O)N1CCC[C@H]1C(=O)N[C@@H]1C(=O)N[C@H](CC(C)C)C(=O)N(C)[C@@H](CC(C)C)C(=O)N[C@@H](CC(C)C)C(=O)N(C)[C@H](CC(C)C)C(=O)N[C@@H](C)C(=O)N[C@@H](CC(C)C)C(=O)N2CCC[C@@H]2C(=O)O[C@@H]1C | 8.1 |
| CC(=O)N1CCC[C@@H]1C(=O)N(C)[C@@H](CC(C)C)C(=O)N[C@@H]1C(=O)N(C)[C@@H](CC(C)C)C(=O)N(C)[C@@H](CC(C)C)C(=O)N[C@@H](CC(C)C)C(=O)N(C)[C@@H](C)C(=O)N[C@H](CC(C)C)C(=O)N2CCC[C@@H]2C(=O)O[C@@H]1C | 6.2 |
| CC(=O)N1CCC[C@H]1C(=O)N(C)[C@@H](CC(C)C)C(=O)N[C@@H]1C(=O)N(C)[C@H](CC(C)C)C(=O)N(C)[C@H](CC(C)C)C(=O)N(C)[C@@H](CC(C)C)C(=O)N(C)[C@H](C)C(=O)N[C@H](CC(C)C)C(=O)N2CCC[C@@H]2C(=O)O[C@@H]1C | 1.2 |
| CC(=O)N1CCC[C@H]1C(=O)N(C)[C@H](CC(C)C)C(=O)N[C@@H]1C(=O)N[C@H](CC(C)C)C(=O)N[C@@H](CC(C)C)C(=O)N[C@@H](CC(C)C)C(=O)N(C)[C@@H](C)C(=O)N[C@H](CC(C)C)C(=O)N2CCC[C@@H]2C(=O)O[C@@H]1C | 1.2 |
| CC(=O)N1CCC[C@H]1C(=O)N(C)[C@H](CC(C)C)C(=O)N[C@@H]1C(=O)N[C@H](CC(C)C)C(=O)N[C@@H](CC(C)C)C(=O)N(C)[C@H](CC(C)C)C(=O)N(C)[C@H](C)C(=O)N[C@H](CC(C)C)C(=O)N2CCC[C@@H]2C(=O)O[C@@H]1C | 1.7 |
| CC(=O)N1CCC[C@H]1C(=O)N[C@@H]1C(=O)N[C@H](CC(C)C)C(=O)N(C)[C@H](CC(C)C)C(=O)N(C)[C@H](CC(C)C)C(=O)N[C@H](CC(C)C)C(=O)N(C)[C@@H](C)C(=O)N[C@@H](CC(C)C)C(=O)N2CCC[C@@H]2C(=O)O[C@@H]1C | 12 |
| CC(=O)N1CCC[C@@H]1C(=O)N(C)[C@H](CC(C)C)C(=O)N[C@@H]1C(=O)N[C@@H](CC(C)C)C(=O)N[C@@H](CC(C)C)C(=O)N(C)[C@H](CC(C)C)C(=O)N(C)[C@H](C)C(=O)N[C@H](CC(C)C)C(=O)N2CCC[C@H]2C(=O)O[C@@H]1C | 0.33 |
| CC(=O)N1CCC[C@H]1C(=O)N[C@@H]1C(=O)N[C@H](CC(C)C)C(=O)N(C)[C@H](CC(C)C)C(=O)N(C)[C@@H](CC(C)C)C(=O)N(C)[C@@H](CC(C)C)C(=O)N[C@@H](C)C(=O)N[C@@H](CC(C)C)C(=O)N2CCC[C@@H]2C(=O)O[C@@H]1C | 7.4 |
| CC(=O)N1CCC[C@@H]1C(=O)N(C)[C@H](CC(C)C)C(=O)N[C@@H]1C(=O)N[C@@H](CC(C)C)C(=O)N[C@@H](CC(C)C)C(=O)N[C@@H](CC(C)C)C(=O)N[C@@H](C)C(=O)N[C@H](CC(C)C)C(=O)N2CCC[C@@H]2C(=O)O[C@@H]1C | 0.004 |
| CC(=O)N1CCC[C@H]1C(=O)N(C)[C@@H](CC(C)C)C(=O)N[C@@H]1C(=O)N[C@H](CC(C)C)C(=O)N(C)[C@@H](CC(C)C)C(=O)N(C)[C@H](CC(C)C)C(=O)N[C@@H](C)C(=O)N[C@H](CC(C)C)C(=O)N2CCC[C@@H]2C(=O)O[C@@H]1C | 0.56 |
| CC(=O)N1CCC[C@@H]1C(=O)N(C)[C@H](CC(C)C)C(=O)N[C@@H]1C(=O)N[C@@H](CC(C)C)C(=O)N[C@@H](CC(C)C)C(=O)N(C)[C@@H](CC(C)C)C(=O)N(C)[C@@H](C)C(=O)N[C@H](CC(C)C)C(=O)N2CCC[C@@H]2C(=O)O[C@@H]1C | 0.17 |
| CC(=O)N1CCC[C@@H]1C(=O)N(C)[C@H](CC(C)C)C(=O)N[C@@H]1C(=O)N(C)[C@@H](CC(C)C)C(=O)N[C@@H](CC(C)C)C(=O)N(C)[C@@H](CC(C)C)C(=O)N[C@@H](C)C(=O)N[C@H](CC(C)C)C(=O)N2CCC[C@@H]2C(=O)O[C@@H]1C | 0.23 |
| CC(=O)N1CCC[C@H]1C(=O)N(C)[C@@H](CC(C)C)C(=O)N[C@@H]1C(=O)N(C)[C@@H](CC(C)C)C(=O)N[C@@H](CC(C)C)C(=O)N(C)[C@@H](CC(C)C)C(=O)N(C)[C@H](C)C(=O)N[C@@H](CC(C)C)C(=O)N2CCC[C@H]2C(=O)O[C@@H]1C | 4.9 |
| CC(=O)N1CCC[C@H]1C(=O)N(C)[C@@H](CC(C)C)C(=O)N[C@@H]1C(=O)N(C)[C@@H](CC(C)C)C(=O)N(C)[C@H](CC(C)C)C(=O)N(C)[C@@H](CC(C)C)C(=O)N(C)[C@H](C)C(=O)N[C@@H](CC(C)C)C(=O)N2CCC[C@H]2C(=O)O[C@@H]1C | 2.9 |
| CC(=O)N1CCC[C@@H]1C(=O)N(C)[C@H](CC(C)C)C(=O)N[C@@H]1C(=O)N[C@@H](CC(C)C)C(=O)N(C)[C@@H](CC(C)C)C(=O)N(C)[C@H](CC(C)C)C(=O)N(C)[C@H](C)C(=O)N[C@H](CC(C)C)C(=O)N2CCC[C@H]2C(=O)O[C@@H]1C | 1.5 |
| CC(=O)N1CCC[C@H]1C(=O)N(C)[C@H](CC(C)C)C(=O)N[C@@H]1C(=O)N(C)[C@@H](CC(C)C)C(=O)N[C@@H](CC(C)C)C(=O)N[C@H](CC(C)C)C(=O)N[C@@H](C)C(=O)N[C@H](CC(C)C)C(=O)N2CCC[C@H]2C(=O)O[C@@H]1C | 0.76 |
| CC(=O)N1CCC[C@H]1C(=O)N(C)[C@@H](CC(C)C)C(=O)N[C@@H]1C(=O)N[C@@H](CC(C)C)C(=O)N(C)[C@@H](CC(C)C)C(=O)N[C@H](CC(C)C)C(=O)N[C@@H](C)C(=O)N[C@@H](CC(C)C)C(=O)N2CCC[C@H]2C(=O)O[C@@H]1C | 0.11 |
| CC(=O)N1CCC[C@@H]1C(=O)N(C)[C@H](CC(C)C)C(=O)N[C@@H]1C(=O)N[C@@H](CC(C)C)C(=O)N(C)[C@@H](CC(C)C)C(=O)N(C)[C@@H](CC(C)C)C(=O)N[C@@H](C)C(=O)N[C@@H](CC(C)C)C(=O)N2CCC[C@H]2C(=O)O[C@@H]1C | 0.11 |

The first 3 entries again:

{"smiles": "CC(=O)N1CCC[C@H]1C(=O)N(C)[C@@H](CC(C)C)C(=O)N[C@@H]1C(=O)N[C@@H](CC(C)C)C(=O)N[C@H](CC(C)C)C(=O)N[C@H](CC(C)C)C(=O)N[C@H](C)C(=O)N[C@H](CC(C)C)C(=O)N2CCC[C@H]2C(=O)O[C@@H]1C", "PAMPA (10^-6 cm/s)": "0.13"}
{"smiles": "CC(=O)N1CCC[C@H]1C(=O)N(C)[C@@H](CC(C)C)C(=O)N[C@@H]1C(=O)N[C@H](CC(C)C)C(=O)N(C)[C@@H](CC(C)C)C(=O)N(C)[C@H](CC(C)C)C(=O)N[C@@H](C)C(=O)N[C@@H](CC(C)C)C(=O)N2CCC[C@@H]2C(=O)O[C@@H]1C", "PAMPA (10^-6 cm/s)": "6"}
{"smiles": "CC(=O)N1CCC[C@@H]1C(=O)N(C)[C@@H](CC(C)C)C(=O)N[C@@H]1C(=O)N[C@H](CC(C)C)C(=O)N[C@@H](CC(C)C)C(=O)N(C)[C@H](CC(C)C)C(=O)N[C@@H](C)C(=O)N[C@@H](CC(C)C)C(=O)N2CCC[C@@H]2C(=O)O[C@@H]1C", "PAMPA (10^-6 cm/s)": "4"}